Patent US10487068B2, “Pyridazine derivatives as RORc modulators” (Genentech, Inc., priority 2015, dated 2019)

Amino acid sequences for entries named in this document (tags omitted). Residues count along the entry.
UniProt P51449, 269-508 limits assumed: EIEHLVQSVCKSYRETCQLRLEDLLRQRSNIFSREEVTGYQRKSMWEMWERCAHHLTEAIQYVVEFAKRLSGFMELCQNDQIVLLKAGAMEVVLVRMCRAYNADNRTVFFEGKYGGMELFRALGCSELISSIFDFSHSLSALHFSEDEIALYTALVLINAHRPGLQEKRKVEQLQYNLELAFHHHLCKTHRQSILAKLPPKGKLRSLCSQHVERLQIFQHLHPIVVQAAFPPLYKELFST

Target: RORc ligand binding domain (Homo sapiens, UniProt P51449)
Assay: In Vitro RORc Ligand Binding Assay
Conditions: RORc IC50, radioligand 25-[3H]hydroxycholesterol 6 nM; 0.6 ug/mL RORc receptor; 3 h at 25° C.

Compound	IC50 [nM]
Cc1ccc(C#N)nc1[C@@]12CC[C@@H](c3cc(-c4c(F)cccc4F)nnc31)C2(C)C [Example 186, 6-((5R,8S)-3-(2,6-difluorophenyl)-9,9-dimethyl-5,6,7,8-tetrahydro-5,8-methanocinnolin-8-yl)-5-methylpicolinonitrile]	2.9
CC1(C)[C@H]2CC[C@]1(c1ccnc(N3CCC[C@H]3CO)n1)c1nnc(-c3c(F)cccc3F)cc12 [Example 331]	2.9
CCc1ncn(-c2nccc([C@@]34CC[C@@H](c5cc(-c6c(F)cccc6F)nnc53)C4(C)C)n2)n1 [Example 272]	2.9
CC1(C)[C@H]2CC[C@]1(c1ccnc(N3CCC(O)CC3)n1)c1nnc(-c3c(F)cccc3F)cc12 [Example 332]	2.9
